These results are taken from patent US20070202079A1, “Therapeutic compositions and methods useful in modulating protein tyrosine phosphatases” (priority 2006, published 2007).

In the experiment the test system is WM9 cells. The experiment in a line: WM9 cell growth, MTT. It counts as cell-based, human. To be noted: day 6. The method, then:
For cell proliferation assays, cells were grown in 10% FCS culture medium containing various amounts of IFNs and/or sodium stibogluconate in 96 well plates and cultured at 37° C. for 3 or 6 days as indicated. The numbers of viable cells in proliferation assays were determined by MTT assays as described in Phatak et al., J. Immunol. 167, 3391 (2001). […]
NIH3T3 (Yi, et al., Blood 85, 87 (1995)), WM9 (Forsberg, et al., Proc. Nat. Acad Sci. USA 90, 393 (1993)), DU145 (Mickey, et al., Cancer Res. 37, 4049 (1977)), LoVo (Drewinko, et al., Cancer Res. 36, 467 (1976)), HEY (Buick, et al., Cancer Res. 45, 3668 (1985)), U251 (Yoshida, et al., Cancer 50, 410 (1982)), A549 (Giard, et al., J. Natl. Cancer Inst. 51, 1417 (1973)) and SK-N-SH (Helson, et al., Cancer Res. 35, 2594 (1975)) cell lines have been described and were cultured in RPMI 1640 supplemented with 10% fetal calf serum (FCS). For measurement of sodium stibogluconate effects on cell growth in vitro, cells were cultured in the absence (−) or presence (+) of various amounts of sodium stibogluconate for 6 days with viable cells quantified by MTT assays (Mosmann, J. Immunol. Methods 65, 55 (1983)). Percentages of growth inhibition by sodium stibogluconate were calculated (.+−.x%).

B1: IFN-beta: recombinant human IFN-beta (protein, UniProt P01574 22-187, looked up)
Interferon beta: MSYNLLGFLQRSSNFQCQKLLWQLNGRLEYCLKDRMNFDIPEEIKQLQQFQKEDAALTIYEMLQNIFAIFRQDSSSTGWNETIVENLLANVYHQINHLKTVLEEKLEKEDFTRGKLMSSLHLKRYYGRILHYLKAKEYSHCAWTIVRVEILRNFYFINRLTGYLRN
Regarding B1, the “growth of WM9 cells with IFNs” value is listed as “more potently”.
